Data published in PMC9430770, “Baicalein Acts against Candida albicans by Targeting Eno1 and Inhibiting Glycolysis” (Microbiology Spectrum, 2022).

Legend:
CaEno1 = biological target: T1, CaEno1 (Candida albicans, UniProt P30575); assay: biochemical
T1 sequence (P30575 1-440): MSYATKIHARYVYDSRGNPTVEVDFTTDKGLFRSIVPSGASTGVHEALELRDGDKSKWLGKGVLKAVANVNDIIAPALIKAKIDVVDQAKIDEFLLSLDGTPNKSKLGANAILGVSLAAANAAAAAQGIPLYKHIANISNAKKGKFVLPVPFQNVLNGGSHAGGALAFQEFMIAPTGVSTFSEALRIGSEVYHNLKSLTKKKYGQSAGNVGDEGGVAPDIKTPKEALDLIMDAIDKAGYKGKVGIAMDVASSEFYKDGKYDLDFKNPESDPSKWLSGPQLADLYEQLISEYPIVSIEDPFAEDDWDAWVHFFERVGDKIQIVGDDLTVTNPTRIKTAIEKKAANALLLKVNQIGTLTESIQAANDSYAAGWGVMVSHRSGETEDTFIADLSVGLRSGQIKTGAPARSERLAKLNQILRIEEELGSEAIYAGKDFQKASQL

Eno1 (CaEno1) [1] = biological target: T2, Eno1 (CaEno1) (Candida albicans, UniProt P30575); settings: SPR
T2 sequence (P30575 1-440): T1 sequence (P30575 1-440)

[2] = biological target: interaction of Eno1 and PLG (Candida albicans, UniProt P30575); assay: biochemical
Eno1 (CaEno1) [3] = biological target: T2, Eno1 (CaEno1); assay: biochemical; settings: for Kd: SPR

## O=c1cc(-c2ccccc2)oc2cc(O)c(O)c(O)c12 [BE, Baicalein]
CaEno1
  IC50: 62.9 ± 2.2 µM
Eno1 (CaEno1) [1]
  theoretical stoichiometric ratio (SR): around 1.03
[2]
  IC50: 2.95 µM
Eno1 (CaEno1) [3]; affinity constant KD, kinetic model
  Kd: 8.12 µM
Eno1 (CaEno1) [3]; binding affinity KD, steady-state affinity analysis
  Kd: 7.93 µM
Eno1 (CaEno1) [3]; read-out: association rate constant ka
  kon: 1230 M⁻¹ s⁻¹
Eno1 (CaEno1) [3]; read-out: dissociation rate constant Kd
  koff: 0.01 s⁻¹
